Here are results for six compounds from US20260042755A1, “GPR6 INVERSE AGONISTS” (MapLight Therapeutics, Inc., priority 2022, published 2026).

Amino acid sequences for entries named in this document (tags omitted).
UniProt P46089, whole entry: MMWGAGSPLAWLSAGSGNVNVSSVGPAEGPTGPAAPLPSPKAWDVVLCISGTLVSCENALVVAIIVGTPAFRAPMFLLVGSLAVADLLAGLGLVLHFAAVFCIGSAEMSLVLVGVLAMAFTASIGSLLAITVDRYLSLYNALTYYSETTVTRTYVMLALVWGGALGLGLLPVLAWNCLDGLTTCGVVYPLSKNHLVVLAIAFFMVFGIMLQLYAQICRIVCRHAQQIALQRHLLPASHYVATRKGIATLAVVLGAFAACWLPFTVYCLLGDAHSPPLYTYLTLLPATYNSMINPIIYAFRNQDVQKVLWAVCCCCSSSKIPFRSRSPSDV
UniProt P46095, whole entry: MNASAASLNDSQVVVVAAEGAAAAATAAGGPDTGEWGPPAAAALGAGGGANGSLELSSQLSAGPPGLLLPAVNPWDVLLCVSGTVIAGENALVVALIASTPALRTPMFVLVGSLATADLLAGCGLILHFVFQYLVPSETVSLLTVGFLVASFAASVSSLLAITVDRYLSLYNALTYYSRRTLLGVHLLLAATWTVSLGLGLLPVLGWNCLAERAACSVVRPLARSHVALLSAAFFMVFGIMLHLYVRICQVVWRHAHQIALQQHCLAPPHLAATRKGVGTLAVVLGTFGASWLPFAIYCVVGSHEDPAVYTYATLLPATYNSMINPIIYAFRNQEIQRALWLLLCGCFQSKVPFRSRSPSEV

The target of one assay is GPR3 (Homo sapiens, UniProt P46089). Briefly: GPR3 antagonist functional cAMP assay (LANCE Ultra cAMP TR-FRET, CHO cells stably expressing GPR3). The conditions noted are these: read-out: GPR3 IC50. How it is done:
(§1) Example 56. GPR6 and GPR3 Antagonist Functional cAMP Assay
(§2) CHO cells stably expressing GPR6 or GPR3 receptors were dissociated from cell culture flasks and incubated for 2 h at 37° C. in a 10 cm dish in a humidified incubator. Cells were dissociated, counted to have 1e6 cells/mL (4.5e6 cells needed/384-well plate), washed once in starved media, than in D-PBS and finally suspended in assay buffer (Krebs-Ringer Bicarbonate Buffer with 1800 mg/L glucose, without calcium chloride and sodium bicarbonate (Sigma) in the presence of 0.1% BSA and 150 μM of Ro 20-1724 Phosphodiesterase inhibitor).
(§3) Cells in suspension from above were plated in 384-well white Optiplate (PerkinElmer) at 10,000 cells/well/10 μl, briefly centrifuged prior direct addition of compounds ([…]) in 10 mM DMSO using a Tecan D300e Digital Dispenser, final DMSO in each well was normalized to 0.1%. Cells were incubated in the presence of compounds for 45 min at 37° C. in a humidified incubator.
(§4) To measure cAMP levels, LANCE® Ultra cAMP assay (Perkin Elmer), a homogeneous time-resolved fluorescence resonance energy transfer (TR-FRET) immunoassay was used following manufacturer's recommendations. Plates were shaken for 1 h at room temperature before reading on a Tecan InfiniteF200Pro multi-mode plate reader using standard FRET settings (Excitation 340 nm, Emission at 615 nm). FRET values were reported as readings obtained at 665 nm. Data were normalized to DMSO (0.1%) and reference compounds (100%) and fit to a 4-parameter logistical fit to generate antagonist IC50s.
In general terms: cAMP levels reflect the balance of adenylyl cyclase and phosphodiesterase activity.

For another assay, the target named is GPR6 (Homo sapiens, UniProt P46095). Briefly: GPR6 antagonist functional cAMP assay (LANCE Ultra cAMP TR-FRET, CHO cells stably expressing GPR6). The conditions noted are these: read-out: GPR6 IC50. As for the experimental part:
as §1, §2, §3, §4

Where [1] appears, read: CHO cells stably expressing GPR3, cAMP assay (Example 24).
The mark [2] stands for this setting: CHO cells stably expressing GPR6, cAMP assay (Example 24).

SMILES strings stand for the structures. Like-named read-outs stand apart in the source and are kept apart here.

For the compound `CCn1cc(-c2nc3cc(C(O)C(C)(C)O)ncc3nc2N2CCN(Cc3ccc(F)cc3F)CC2)cn1` (single isomer, unassigned), the IC50 (in general, the concentration needed to halve the response being measured) at GPR3 (CHO cells stably expressing GPR3, cAMP assay) is 0.1 to 1 µM; on GPR6 (CHO cells stably expressing GPR6, cAMP assay), under 0.1 µM.
`COCCOc1cc2nc(-c3cnn(CF)c3)c(N3CCN(Cc4ccc(F)cc4F)CC3)nc2cn1`: the figures for the concentration for half-maximal inhibition (IC50) at GPR3 (procedure of Example 24) and on GPR6 (procedure of Example 24) were 1 to 30 µM and 0.1 to 1 µM, respectively.
For `CC(C)(O)C(O)c1cc2nc(-c3cnn(CF)c3)c(N3CCC(Cc4ccc(F)cc4F)CC3)nc2cn1` (single isomer, unassigned), in that order: under 0.1 µM and under 0.1 µM.
For `CC(C)(O)C(C)(O)c1cc2nc(-c3cnn(C(F)F)c3)c(N3CCN(Cc4cc(F)ccc4F)CC3)nc2cn1` (single isomer, unassigned), in that order: 1 to 30 µM and 0.1 to 1 µM.
For the compound `CC(=O)N1CCc2nc(N3CCC(Oc4ccc(F)cc4F)CC3)c(-c3cccc(OC(F)F)n3)nc2C1`, the values for the concentration for half-maximal inhibition (IC50) at GPR3 (setting [1]) and on GPR6 (setting [2]) were 1 to 30 µM and 0.1 to 1 µM, respectively.
For `COc1cnc(-c2nc3c(nc2N2CCC(Oc4ccc(F)cc4F)CC2)CCN(C(C)=O)C3)cn1` the same measures were 1 to 30 µM and 0.1 to 1 µM.
